Results as given in PubChem BioAssay (NCI).
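All cell lines were grown in 96-well plates and treated with compound for 48 hours. GI50 = concentration required for 50% inhibition of growth. TGI: concentration producing complete growth inhibition.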

Assays:
Test in all cases: NCI tumour cell line growth inhibition, 48 h
786-0 renal = test system: 786-0 renal
A498 renal = test system: A498 renal
A549 NSCLC = test system: A549 NSCLC
ACHN renal = test system: ACHN renal
CAKI-1 renal = test system: CAKI-1 renal
COLO 205 colon = test system: COLO 205 colon
DLD-1 colon = test system: DLD-1 colon
DMS 114 small cell lung = test system: DMS 114 small cell lung
DMS 273 small cell lung = test system: DMS 273 small cell lung
EKVX NSCLC = test system: EKVX NSCLC
HCC-2998 colon = test system: HCC-2998 colon
HCT-116 colon = test system: HCT-116 colon
HL-60(TB) leukemia = test system: HL-60(TB) leukemia
HOP-62 NSCLC = test system: HOP-62 NSCLC
HOP-92 NSCLC = test system: HOP-92 NSCLC
HT29 colon = test system: HT29 colon
IGROV1 ovarian = test system: IGROV1 ovarian
KM12 colon = test system: KM12 colon
KM20L2 colon = test system: KM20L2 colon
LOX IMVI melanoma = test system: LOX IMVI melanoma
LXFL 529 NSCLC = test system: LXFL 529 NSCLC
M14 melanoma = test system: M14 melanoma
M19-MEL melanoma = test system: M19-MEL melanoma
MALME-3M melanoma = test system: MALME-3M melanoma
MOLT-4 leukemia = test system: MOLT-4 leukemia
NCI-H226 lung = test system: NCI-H226 lung
NCI-H23 lung = test system: NCI-H23 lung
NCI-H322M lung = test system: NCI-H322M lung
NCI-H460 lung = test system: NCI-H460 lung
NCI-H522 lung = test system: NCI-H522 lung
OVCAR-3 ovarian = test system: OVCAR-3 ovarian
OVCAR-4 ovarian = test system: OVCAR-4 ovarian
OVCAR-5 ovarian = test system: OVCAR-5 ovarian
OVCAR-8 ovarian = test system: OVCAR-8 ovarian
RPMI-8226 leukemia = test system: RPMI-8226 leukemia
RXF 393 renal = test system: RXF 393 renal
RXF-631 renal = test system: RXF-631 renal
SF-268 CNS = test system: SF-268 CNS
SF-295 CNS = test system: SF-295 CNS
SF-539 CNS = test system: SF-539 CNS
SK-MEL-2 melanoma = test system: SK-MEL-2 melanoma
SK-MEL-28 melanoma = test system: SK-MEL-28 melanoma
SK-MEL-5 melanoma = test system: SK-MEL-5 melanoma
SK-OV-3 ovarian = test system: SK-OV-3 ovarian
SN12C renal = test system: SN12C renal
SNB-19 CNS = test system: SNB-19 CNS
SNB-75 CNS = test system: SNB-75 CNS
SNB-78 CNS = test system: SNB-78 CNS
SR leukemia = test system: SR leukemia
SW-620 colon = test system: SW-620 colon
TK-10 renal = test system: TK-10 renal
U251 CNS = test system: U251 CNS
UACC-257 melanoma = test system: UACC-257 melanoma
UACC-62 melanoma = test system: UACC-62 melanoma
UO-31 renal = test system: UO-31 renal

## CC1=CC2OC3CC4OC(=O)/C=C/C=C/C(C(C)O)OCCC(C)C(O)C(=O)OCC2(CC1O)C4(C)C31CO1 (stereo not given)
786-0 renal
  GI50: 0.00962 µM
  TGI: 0.0341 µM
A498 renal
  GI50: 0.00825 µM
  TGI: 0.0161 µM
A549 NSCLC
  GI50: 0.0168 µM
  TGI: 0.129 µM
ACHN renal
  GI50: 0.0148 µM
  TGI: 0.0698 µM
CAKI-1 renal
  GI50: 0.0108 µM
  TGI: 0.0544 µM
COLO 205 colon
  GI50: 0.00857 µM
  TGI: 0.0169 µM
DLD-1 colon
  GI50: < 0.005 µM
  TGI: 0.0159 µM
DMS 114 small cell lung
  GI50: < 0.005 µM
  TGI: < 0.005 µM
DMS 273 small cell lung
  GI50: < 0.005 µM
  TGI: 0.0119 µM
EKVX NSCLC
  GI50: 0.0129 µM
  TGI: 0.0401 µM
HCC-2998 colon
  GI50: < 0.005 µM
  TGI: 0.00679 µM
HCT-116 colon
  GI50: < 0.005 µM
  TGI: 0.00762 µM
HL-60(TB) leukemia
  GI50: < 0.005 µM
  TGI: 50 µM
HOP-62 NSCLC
  GI50: 0.00561 µM
  TGI: 0.0226 µM
HOP-92 NSCLC
  GI50: 0.00586 µM
  TGI: 0.0206 µM
HT29 colon
  GI50: 0.00829 µM
  TGI: 0.0277 µM
IGROV1 ovarian
  GI50: < 0.005 µM
  TGI: 0.0301 µM
KM12 colon
  GI50: < 0.005 µM
  TGI: 0.0147 µM
KM20L2 colon
  GI50: 0.011 µM
  TGI: 0.0328 µM
LOX IMVI melanoma
  GI50: < 0.005 µM
  TGI: 0.00623 µM
LXFL 529 NSCLC
  GI50: < 0.005 µM
  TGI: < 0.005 µM
M14 melanoma
  GI50: 0.00547 µM
  TGI: 0.0119 µM
M19-MEL melanoma
  GI50: < 0.005 µM
  TGI: 0.008 µM
MALME-3M melanoma
  GI50: < 0.005 µM
  TGI: 0.00561 µM
MOLT-4 leukemia
  GI50: < 0.005 µM
  TGI: 0.00864 µM
NCI-H226 lung
  GI50: < 0.005 µM
  TGI: < 0.005 µM
NCI-H23 lung
  GI50: 0.00688 µM
  TGI: 0.0155 µM
NCI-H322M lung
  GI50: 0.0222 µM
  TGI: 0.169 µM
NCI-H460 lung
  GI50: < 0.005 µM
  TGI: 0.0125 µM
NCI-H522 lung
  GI50: < 0.005 µM
  TGI: < 0.005 µM
OVCAR-3 ovarian
  GI50: < 0.005 µM
  TGI: 0.0235 µM
OVCAR-4 ovarian
  GI50: 0.00545 µM
  TGI: 0.0163 µM
OVCAR-5 ovarian
  GI50: 0.00936 µM
  TGI: 0.0277 µM
OVCAR-8 ovarian
  GI50: 0.0112 µM
  TGI: 0.0322 µM
RPMI-8226 leukemia
  GI50: < 0.005 µM
  TGI: 0.00715 µM
RXF 393 renal
  GI50: 0.00689 µM
  TGI: 0.0143 µM
RXF-631 renal
  GI50: 0.0118 µM
  TGI: 0.0327 µM
SF-268 CNS
  GI50: 0.0111 µM
  TGI: 0.0334 µM
SF-295 CNS
  GI50: 0.0138 µM
  TGI: 0.0498 µM
SF-539 CNS
  GI50: < 0.005 µM
  TGI: 0.0178 µM
SK-MEL-2 melanoma
  GI50: < 0.005 µM
  TGI: 0.0134 µM
SK-MEL-28 melanoma
  GI50: < 0.005 µM
  TGI: 0.00944 µM
SK-MEL-5 melanoma
  GI50: < 0.005 µM
  TGI: < 0.005 µM
SK-OV-3 ovarian
  GI50: 0.0125 µM
  TGI: 0.0415 µM
SN12C renal
  GI50: 0.0237 µM
  TGI: 2.22 µM
SNB-19 CNS
  GI50: < 0.005 µM
  TGI: 0.0267 µM
SNB-75 CNS
  GI50: 0.0076 µM
  TGI: 0.0172 µM
SNB-78 CNS
  GI50: 0.0111 µM
  TGI: 0.0469 µM
SR leukemia
  GI50: < 0.005 µM
  TGI: 0.00653 µM
SW-620 colon
  GI50: 0.00994 µM
  TGI: 0.0507 µM
TK-10 renal
  GI50: 0.0081 µM
  TGI: 0.0246 µM
U251 CNS
  GI50: < 0.005 µM
  TGI: 0.0676 µM
UACC-257 melanoma
  GI50: 0.00807 µM
  TGI: 0.0175 µM
UACC-62 melanoma
  GI50: 0.00812 µM
  TGI: 0.0173 µM
UO-31 renal
  GI50: 0.0617 µM
  TGI: 0.168 µM
